UUG fidelity = modulators of start codon recognition fidelity in yeast; S. cerevisiae UUG-firefly luciferase reporter, luminescence/redox ratio; AID 602363; 350,000 tested, 0.13% active; activity score, % at 18.7 µM;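 active = replicate mean at a twofold rise or more, about +100% in these data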;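 also: firefly luciferase made from a UUG start codon reports start codon fidelity; reporter light over untreated wells divided by growth signal over untreated wells; some hits fall short of that in this replicate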
MC4R ag barr = MC4R agonists recruiting beta-arrestin, primary screen, cell-based, luminescence, agonist arm of biased-ligand search; AID 540308, 2011; Melanocortin receptor 4 (Homo sapiens), P32245; actives 0.98% (n = 360,000); U2OS MC4R beta-arrestin complementation; percent of melanotan II response, DMSO zero; activation, % at 8.9 µM;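 active = activation above a per-plate cutoff, the mean activation of sample wells on that plate plus 3 SD, cut at about 8% in these data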
NALP1 yeast inh = NALP1 inflammasome inhibitors in reconstituted yeast, colorimetric, S. cerevisiae, triplicate retest; inhibition, % at 10 µM; actives 0.61% (n = 280,000); S. cerevisiae NALP1/ASC/caspase-1 growth, X-gal OD620, 72 h; in the data active = inhibition mostly above about 24%, no sharp cut-off; inactive = mostly below about 32%
ALR H2O2 inh = human ALR oxidase inhibition via reduced H2O2; purified ALR, DTT oxidation, H2O2 HRP-luminol luminescence; inhibition, % (concentration not given with the values); 290,000 tested, 3.8% active; AID 485317;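 active = mean and each replicate at 75% or more; inconclusive = only one of the two met; inactive = neither met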;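 also: stock transfer was 7.5 nL into about 7.5 µL; 0% = neutral wells and 100% = wells with inactivated enzyme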
MC4R antagonist = MC4R antagonists of cAMP signaling, primary screen, cell-based, TR-FRET, antagonist arm of biased-ligand search; MC4R-expressing cells, MTII-stimulated cAMP, LANCE TR-FRET; Melanocortin receptor 4 (Homo sapiens), P32245; actives 0.48% (n = 360,000); inhibition, % at 6.5 µM; AID 540295, 2011;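 active = inhibition above its plate's cutoff, the mean of tested wells on that plate plus 3 SD, cut at about 29% in these data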
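system = U2OS cells with stable human MC4R expression | also added = Melanotan II challenge after compound preincubation | dosing = one concentration, 6.5 µM nominal | incubation = compound 30 min, challenge 1 h, detection 1 h | measured by = TR-FRET with Eu-cAMP and labeled anti-cAMP, 671 nm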
HDAC3 inh = HDAC3 deacetylase inhibitors, primary screen, biochemical, fluorescence, cell-free homogeneous; inhibition, % at 8.3 µM; Histone deacetylase 3 (Homo sapiens), O15379; AID 2718, 2010; recombinant HDAC3, fluorogenic peptide/trypsin coupled; actives 0.15% (n = 320,000); in the data active = inhibition above about 26%, passing the limit was not always enough
Hits are given with their value; . = inactive; / = not tested or not shown. The list is not random: actives were taken first. Their share in the collection is about 4.2%.

Chains of the proteins cited; added tags and fusions are not shown.
Melanocortin receptor 4 (Homo sapiens), P32245, UniProt P32245, whole entry, looked up: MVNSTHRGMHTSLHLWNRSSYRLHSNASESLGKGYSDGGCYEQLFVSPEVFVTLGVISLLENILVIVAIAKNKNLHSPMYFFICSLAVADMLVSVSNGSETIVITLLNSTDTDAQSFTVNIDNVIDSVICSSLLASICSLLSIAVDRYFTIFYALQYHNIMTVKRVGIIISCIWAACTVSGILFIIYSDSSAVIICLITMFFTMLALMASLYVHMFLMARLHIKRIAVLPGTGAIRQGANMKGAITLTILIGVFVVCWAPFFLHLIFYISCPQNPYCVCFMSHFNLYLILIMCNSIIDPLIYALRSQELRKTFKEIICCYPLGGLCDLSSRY

SMILES	UUG fidelity	MC4R ag barr	NALP1 yeast inh	ALR H2O2 inh	MC4R antagonist	HDAC3 inh
Cc1cc(Br)ccc1NC(=O)CN1C(=S)NC(C)(C)CC1C (stereo not given)	/	.	29.3	.	.	.
Cc1noc(C)c1S(=O)(=O)N(C)C[C@H]1OCCCC[C@@H](C)Oc2ccc(NC(=O)C3CCCCC3)cc2C(=O)N([C@@H](C)CO)C[C@@H]1C	.	/	/	/	/	/
CN1CCN(/N=C/c2nc(-c3ccccc3Cl)n3ccccc23)CC1	/	.	.	98.3	.	.
COCC(=O)N(C)C[C@@H]1Oc2ncc(C#Cc3ccc(F)cc3)cc2C(=O)N([C@@H](C)CO)C[C@@H]1C	.	/	/	/	/	/
CC1CC(C)CN(C(=O)CSCC(=O)Nc2nc(-c3cccs3)cs2)C1 (stereo not given)	.	.	.	98.6	.	.
O=C(CSCC(=O)N1CCCCC1)Nc1nc(-c2ccc(Cl)s2)cs1	.	.	.	.	.	/
O=C(CSCC(=O)N1CCCCC1)Nc1nc(-c2cccs2)cs1	.	.	.	96.0	.	/
CO[C@@H]1CN(C)C(=O)c2ccc(NS(C)(=O)=O)cc2OC[C@H](C)N(C(=O)NC(C)C)C[C@@H]1C	.	/	/	/	/	/
Cc1nn(CCc2n[nH]c(=S)n2C)c(C)c1Br	.	.	.	93.8	.	.
CN(C)c1ccc(Nc2cc(Cl)ncn2)cc1	.	.	.	99.5	.	.
COc1ccc(OCc2nnc(NC(=O)Nc3ccccc3F)s2)cc1	/	8.3	/	.	.	.
CCCNC(=O)C[C@@H]1CC[C@@H]2[C@H](COc3ccc(NC(=O)NCC)cc3C(=O)N2C)O1	.	/	/	/	/	/
COc1ccc2nc3ccccc3nc2c1NC(=O)c1ccc(Cl)cc1	.	9.1	.	.	.	.
Cc1cccc(-c2nc(CSc3nc4c(c(=O)[nH]3)CCC4)c(C)o2)c1	.	.	.	98.8	.	.
O=C(NCc1cccc(Br)c1)C1CC2Cn3c(nc4ccccc43)C2N1c1ccccc1 (stereo not given)	.	.	/	77.1	.	.
c1ccc2[nH]c(SCc3cn4cccnc4n3)nc2c1	/	.	.	99.2	.	.
C[C@H](CO)N1C[C@H](C)[C@@H](CN(C)Cc2cncnc2)Oc2ncc(-c3ccc(F)cc3)cc2C1=O	.	/	/	/	/	/
COc1ccccc1-c1nc(S(=O)(=O)c2ccccc2)c(N2CCCCC2)o1	.	.	.	.	32.3	.
O=S(=O)(c1ccc(F)cc1)c1nc(-c2ccccc2F)oc1N1CCCCC1	/	.	.	.	.	.
CCN1CCN(C(=O)C2CCN(S(=O)(=O)c3cccc4cccnc34)CC2)CC1	.	.	.	97.8	.	.
O=C(C1CCN(S(=O)(=O)c2cccc3cccnc23)CC1)N1CCN(Cc2ccccc2)CC1	.	.	/	/	.	/
O=C(C[C@H]1C[C@@H]2c3cc(NC(=O)Nc4ccccc4F)ccc3O[C@@H]2[C@@H](CO)O1)NC1CCCC1	.	/	/	/	/	/
Cc1cc(-c2ccccc2)nc2[nH]n(-c3ccccc3)c(=O)c12	.	.	.	99.0	.	.
Cc1cc(C(C)(C)C)nc2[nH]n(-c3ccccc3)c(=O)c12	.	.	.	96.3	.	.
O=c1c2c(C(F)(F)F)cc(C(F)(F)F)nc2[nH]n1-c1ccccc1	.	.	.	.	.	.
SMILES	UUG fidelity	MC4R ag barr	NALP1 yeast inh	ALR H2O2 inh	MC4R antagonist	HDAC3 inh
Cc1cc(C)c2c(=O)n(-c3ccccc3)[nH]c2n1	.	.	.	98.5	.	.
COc1cccc(-c2ccnc3[nH]n(-c4ccccc4)c(=O)c23)c1	.	.	.	.	.	.
COCC(=O)Nc1ccc2c(c1)C(=O)N(C)C[C@H](OC)[C@H](C)CN(Cc1cccc(F)c1)[C@H](C)CO2	.	/	/	/	/	/
CCC(C)(C)c1ccc(OCCCC[n+]2cccc(C)c2)c(C(C)(C)CC)c1	/	18.6	33.0	/	.	/
COc1ccccc1N1CCN(CC(=O)N2N=CCC2c2ccccc2)CC1 (stereo not given)	/	.	.	.	.	.
COc1ccc(N2CCN(C(=O)[C@H](Cc3c[nH]c4ccccc34)NC(C)=O)CC2)cc1	/	.	.	98.3	.	.
COc1ccc(N2CCN(CC(=O)N3N=CCC3c3ccccc3)CC2)cc1 (stereo not given)	.	.	.	83.9	.	.
COc1ccc(N2CCN(C(=O)CN(C)S(=O)(=O)c3cnc[nH]3)CC2)cc1	/	.	.	87.3	.	.
COc1ccc(N2CCN(C(=O)CNC(=O)Cc3ccccc3)CC2)cc1	.	.	.	78.8	.	.
COc1ccc(N2CCN(C(=O)CNC(=O)Cc3ccc(Cl)cc3)CC2)cc1	.	.	.	.	.	.
O=C(Nc1ccc2c(c1)OCO2)N[C@@H]1CC[C@H](CCNC(=O)C2CCOCC2)O[C@H]1CO	.	/	/	/	/	/
C/C=C/c1cnc2c(c1)C(=O)N([C@@H](C)CO)C[C@@H](C)[C@@H](CN(C)C(=O)C1CC1)O2	.	/	/	/	/	/
CNC[C@@H]1OCCCC[C@H](C)Oc2ccc(NC(=O)c3ccccc3)cc2C(=O)N([C@H](C)CO)C[C@H]1C	.	/	/	/	/	/
CN1C(=O)c2cc(NC(=O)C3CC3)ccc2OC[C@@H]2O[C@H](CC(=O)NCc3cccc(F)c3)CC[C@@H]21	.	/	/	/	/	/
COc1ccc(N2CCN(C(=O)CCCn3c(=O)[nH]c4ccsc4c3=O)CC2)cc1	.	.	.	.	.	.
COc1ccc(N(C(C)C(=O)N(C)Cc2ccccc2)S(C)(=O)=O)cc1 (stereo not given)	.	.	.	.	.	.
COc1ccc(N2CCN(C(=O)CN(Cc3ccccc3)S(C)(=O)=O)CC2)cc1	/	.	.	86.2	.	.
COc1ccc(CCC(=O)N2CCN(c3ccc(OC)cc3)CC2)cc1	.	.	.	/	.	/
COc1ccc(N2CCN(C(=O)CCCCn3c(=O)[nH]c4ccsc4c3=O)CC2)cc1	.	.	.	83.2	.	.
COc1ccc(N2CCN(C(C)C(=O)N(C)Cc3ccccc3)CC2)cc1 (stereo not given)	.	.	.	95.7	.	.
COc1ccc(N2CCN(C(=O)CCc3ccccc3)CC2)cc1	.	.	.	97.1	.	.
C[C@H]1CN([C@@H](C)CO)C(=O)c2cc(-c3ccccc3F)cnc2O[C@@H]1CN(C)C(=O)NC1CCCC1	.	/	/	/	/	/
CCOC(=O)c1c(CSc2ccccc2)oc2cc(Br)c(O)c(CN(C)C)c12	/	.	.	81.5	.	.
O=c1[nH]c2cc3c(cc2cc1C(c1nnnn1Cc1ccccc1)N1CCCCCC1)OCCO3 (stereo not given)	.	.	.	.	.	.
